Drawing on PubChem BioAssay AID651999 (Sanford-Burnham Center for Chemical Genomics, 2013), this text covers inhibition for 26 compounds.

Protein sequences, listed by entry. Tags and fused reporters are not part of them.
UniProt Q92905, whole entry: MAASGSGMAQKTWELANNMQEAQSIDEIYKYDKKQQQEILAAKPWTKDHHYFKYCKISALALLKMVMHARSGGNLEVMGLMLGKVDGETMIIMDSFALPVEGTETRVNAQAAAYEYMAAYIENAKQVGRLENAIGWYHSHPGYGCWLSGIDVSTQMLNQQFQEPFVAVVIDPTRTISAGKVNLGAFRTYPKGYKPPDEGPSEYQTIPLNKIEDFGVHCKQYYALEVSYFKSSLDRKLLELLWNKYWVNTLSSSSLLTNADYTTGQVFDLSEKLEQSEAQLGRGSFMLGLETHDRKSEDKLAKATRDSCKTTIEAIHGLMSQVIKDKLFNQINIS

Only a part is listed here, and it is no random draw. Some tests of the compounds listed are not included; inactive here does not mean inactive elsewhere. The source made the active and inactive calls.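 How the source made its calls: active means pattern-corrected inhibition above about 35%, with an unprinted fluorescence ratio check between 0.5 and 1.5 (limit read from the data, passing the limit was not always enough); inactive means the rest.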

This experiment has as its target COP9 signalosome complex subunit 5 (Homo sapiens) (UniProt Q92905). Kind of experiment: inhibitors of CSN-mediated cullin deneddylation, primary screen, biochemical, fluorescence polarization, uHTS (AID 651999).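 Further: 0% = enzyme with substrate and 100% = substrate without enzyme.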 Conditions: Purified CSN, SCF-Nedd8-OG deneddylation, at 12.5 µM, stronger effect = higher value. The procedure, abridged:
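Material: purified human Csn5 enzyme expressed in HEK293T cells / Medium: Tris buffer pH 7.5, NaCl, DTT, Tween-20, trehalose, ovalbumin / Compound dosing: 12.5 µM single point / Schedule: 90 min incubation of compound, enzyme and substrate at room temperature / Signal: fluorescence polarization of the substrate / Control set: no-enzyme wells high, enzyme-with-substrate wells low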
Background: In fluorescence polarisation assays a small probe gives low polarisation when free and higher when bound to something large.
On to `C=CCN1CCN(CCOC(=O)C(O)(c2ccccc2)c2ccccc2)CC1`, for which the inhibition was inactive: 2.01%.

Consider `O=C(NCC1(N2CCCCC2)CCCCC1)c1cc(F)c(F)cc1Cl`, for which the inhibition was inactive: 1.39%.

Consider `COc1ccc(C(=O)NCC2(N(C)C)CCCCC2)cc1`, for which the inhibition is inactive: -0.67%.

Take `Cc1cc(C(=O)NCC2(N3CCCCC3)CCCCC2)ccc1[N+](=O)[O-]`: the inhibition is inactive: 3.94%.

As to `CCN1CCCC(OC(=O)C2(O)c3ccccc3C=Cc3ccccc32)C1` (stereo unspecified), the inhibition was inactive: -6.4%.

Consider `O=C(NCC1(N2CCCCC2)CCCCC1)c1cccc(Br)c1`, for which the inhibition was inactive: -5.77%.

Turning to `Cc1ccccc1C(=O)NCC1(N2CCCCC2)CCCCC1`, the inhibition was inactive: 4.41%.

Regarding `CN(C)C1CCCC1OC(=O)C(O)(c1ccccc1)c1ccccc1` (stereo unspecified), the inhibition was inactive: -9.98%.

`CN(C)c1ccc(C(=O)NCC2(N(C)C)CCCCC2)cc1`: the inhibition is inactive: -2.71%.

Consider `CCN(CC)CC(C)C(C)OC(=O)C(O)(c1ccccc1)c1ccccc1` (stereo unspecified), for which the inhibition is inactive: -0.33%.

Turning to `COc1cc(SC)ccc1C(=O)NCC1(N(C)C)CCCCC1`, the inhibition is inactive: -1.58%.

On to `CC(C)N1C(=O)CC2(CCN(CCOC(=O)C(O)(c3ccccc3)c3ccccc3)CC2)C1=O`, for which the inhibition is inactive: 1.09%.

On to `Cc1ccc(C(=O)NCC2(N3CCCCC3)CCCCC2)cc1`, for which the inhibition was inactive: 0.12%.

Consider `O=C(NCC1(N2CCCCC2)CCCCC1)c1cc([N+](=O)[O-])ccc1Cl`, for which the inhibition is inactive: 0.33%.

For the compound `CN1[C@@H]2CC[C@H]1CC(OC(=O)C(O)(c1ccccc1)c1ccccc1)C2` (stereo partly specified), the inhibition is inactive: -0.4%.

As to `C=C(C)C#CC(O)(C(=O)OC1CCN(C)CC1)c1ccccc1` (stereo unspecified), the inhibition is inactive: 3.37%.

With `COc1ccc(Br)c(C(=O)NCC2(N3CCCCC3)CCCCC2)c1`, the inhibition is inactive: 2.14%.

On to `CC(C)Oc1ccc(C(=O)NCC2(N(C)C)CCCCC2)cc1`, for which the inhibition was inactive: 2.58%.

For the compound `O=C(OCCN1CCCC1)C(O)(c1ccccc1)c1ccccc1`, the inhibition was inactive: -1.75%.

For `CN(C)c1cccc(C(=O)NCC2(N(C)C)CCCCC2)c1`, the inhibition was inactive: -2.17%.

In the case of `O=C(OC1CN2CCC1CC2)C(CO)(c1ccccc1)c1ccccc1` (stereo unspecified), the inhibition is inactive: 0.53%.

Turning to `COc1cccc(C(=O)NCC2(N3CCCCC3)CCCCC2)c1`, the inhibition was inactive: -0.1%.

With `COc1ccc(Cl)cc1C(=O)NCC1(N(C)C)CCCCC1`, the inhibition was inactive: 3.1%.

`O=C(NCC1(N2CCCCC2)CCCCC1)c1cccc(Cl)c1`: the inhibition is inactive: -3.47%.

With `CN(C)C1(CNC(=O)c2ccc(Br)cc2)CCCCC1`, the inhibition is inactive: -1.22%.

Regarding `COc1cc(C(=O)NCC2(N(C)C)CCCCC2)c([N+](=O)[O-])cc1OC`, the inhibition is inactive: 0.09%.

What is called inhibition is the change of the read-out against control, counted positive when it falls.
